Measurements taken from article PMC6066528 (Frontiers in Pharmacology, 2018).

Test system: primary human hepatocytes
Description: Experimental control culture wells were treated with solvent [DMSO, 0.1% (v/v)] alone. […] The bottoms of the wells were scraped using a pipette tip, after which the contents were transferred to an autosampler vial.
Chromatographic separation was performed on a Shimadzu HPLC system (Shimadzu AG, Reinach, Switzerland), coupled to a triple quadrupole tandem mass spectrometer (API4000 or API5500, AB/MDS Sciex, Concord, Canada), operating in positive electrospray ionization mode.
The CYP activities were determined as the respective metabolite formation rates corresponding to the slope in the metabolite concentration versus time graphs.
For induction experiments, metabolite formation rates were determined as described above, and the fold change versus the basal conditions was calculated as the ratio of the metabolite formation rate in wells exposed to an inducer versus formation rates in control wells.

increase of α-OH-metoprolol formation: 1.4 factor
increase in conversion of O-demethyl-metoprolol to the phenylacetate metabolite (primary human hepatocytes Lot #Hu8124, rifampicin 20 μM 48 h): 1.6 factor
increase in production of the metoprolol phenylacetate metabolite (primary human hepatocytes treated with rifampicin (Figure 3D, lot #Hu8124)): 57%
increase of α-OH-metoprolol formation (primary human hepatocytes, rifampicin 20 μM 48 h, metoprolol 25 μM): increased
Compound: CO[C@H]1/C=C/O[C@@]2(C)Oc3c(C)c(O)c4c(O)c(c(/C=N/N5CCN(C)CC5)c(O)c4c3C2=O)NC(=O)/C(C)=C\C=C\[C@H](C)[C@H](O)[C@@H](C)[C@@H](O)[C@@H](C)[C@H](OC(C)=O)[C@@H]1C [rifampicin]

Where two headings read alike, the source gives them in different places.
